Assay [1] concerns the target T1, A2 receptors from rat striatal membranes (Rattus norvegicus, UniProt P30543). Further details: Rat cerebral cortical and striatal membranes were prepared; from tissue; host or cells: rat striatal membranes. The settings on record: cited from earlier work.
Assay [2] concerns the target T1, A2 receptors from rat striatal membranes. Kind of assay: biochemical.
For assay [3], the target named is T2, A1 receptors from rat brain membranes (Rattus norvegicus, UniProt P25099).
T2 construct: Rat cerebral cortical and striatal membranes were prepared; from tissue; host or cells: rat brain (cerebral cortical) membranes
It counts as binding.

By UniProt entry, the sequences of proteins in these tests, tags left out.
UniProt P30543, whole entry: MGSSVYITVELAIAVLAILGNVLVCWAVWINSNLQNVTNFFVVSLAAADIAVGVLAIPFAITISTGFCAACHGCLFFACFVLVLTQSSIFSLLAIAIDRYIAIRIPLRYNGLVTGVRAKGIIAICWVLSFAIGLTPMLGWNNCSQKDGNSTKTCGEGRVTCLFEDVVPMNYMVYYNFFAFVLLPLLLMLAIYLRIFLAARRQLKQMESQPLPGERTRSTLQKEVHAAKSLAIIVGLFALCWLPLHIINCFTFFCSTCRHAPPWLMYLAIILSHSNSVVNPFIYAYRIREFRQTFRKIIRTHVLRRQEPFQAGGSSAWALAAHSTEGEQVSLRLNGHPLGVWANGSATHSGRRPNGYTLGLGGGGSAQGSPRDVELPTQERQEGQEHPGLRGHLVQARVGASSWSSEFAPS
UniProt P25099, whole entry: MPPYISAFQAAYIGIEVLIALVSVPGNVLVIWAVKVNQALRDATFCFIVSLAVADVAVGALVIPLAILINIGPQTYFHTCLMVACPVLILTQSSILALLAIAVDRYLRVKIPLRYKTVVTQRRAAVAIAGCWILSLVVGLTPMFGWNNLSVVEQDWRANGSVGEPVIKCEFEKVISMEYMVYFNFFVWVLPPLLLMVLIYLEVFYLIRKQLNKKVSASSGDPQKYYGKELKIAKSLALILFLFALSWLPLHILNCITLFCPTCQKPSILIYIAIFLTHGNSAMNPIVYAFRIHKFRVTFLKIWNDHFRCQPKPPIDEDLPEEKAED

The target of assay [4] is T2, A1 receptors from rat brain membranes. Particulars: Table 2, footnotes d/e: Gallo-Rodriguez 1994 / van Galen 1994; cited from earlier work.

Where two headings read alike, the source gives them in different places.

Take `C[C@@H](Cc1ccccc1)Nc1ncnc2c1ncn2[C@@H]1O[C@H](CO)[C@@H](O)[C@H]1O` (mixture of isomers) [Compound 3, N^6-[(R/S)-1-methyl-2-phenylethyl]adenosine]: in assay [1] (read-out: A2 affinity Ki), the Ki (usually a measure of affinity in units of concentration, obtained from inhibition or displacement) was 1820 nM.

With `CCCCn1c(=O)c2c(ncn2[C@@H]2O[C@H](C(=O)NC)[C@@H](O)[C@H]2O)n(CCCC)c1=O` [Compound 124, N-methyl 1,3-di-n-butylxanthine-7-β-D-ribofuronamide], in assay [2], at 100 µM the inhibition was 19 ± 2%. For the same compound, the Ki in assay [3] (read-out: Ki (A1)) is 37300 nM.

`CNC(=O)[C@H]1O[C@@H](n2cnc3c(NCc4cccc(I)c4)ncnc32)[C@H](O)[C@@H]1O` [Compound 42, N^6-(3-iodobenzyl)adenosine-5'-N-methyluronamide]: the inhibitory constant (Ki) in assay [3] (rat brain membranes, displacement of [3H]PIA (or [3H]CHA), read-out: A1 affinity Ki) was 54 ± 5 nM; in assay [4] it was 54 nM; in assay [1] (Table 2, footnotes d/e: literature, read-out: Ki (A2)), 56 nM.

With `C[C@H](Cc1ccccc1)Nc1ncnc2c1ncn2[C@@H]1O[C@H](CO)[C@@H](O)[C@H]1O` [Compound 2, N^6-[(R)-1-methyl-2-phenylethyl]adenosine], the Ki in assay [1] (read-out: A2 affinity Ki) is 124 nM.

Source of the values: patent US5773423A (priority 1994, dated 1998).
